Source: US20260085058A1, “DEGRADERS OF SON OF SEVENLESS HOMOLOG 1” (H. LEE MOFFITT CANCER CENTER AND RESEARCH INSTITUTE, INC., priority 2022, published 2026)

Key:
MCC19990-002 CRC PDO = assay: Organoid drug sensitivity assay (CellTiter-Glo 3D viability); type: cell-based, human
Experimental: (§1) CRC organoids were generated and expanded using a protocol similar to previously published ones for CRC with modifications.^51,52 In brief, the tumor specimen was placed in PBS and then fresh wash media, then minced into approximately 1 mm^3 small fragments using sterile scalpels. Tissue fragments were placed in a Falcon tube with warmed digestion media and then incubated for 30-45 minutes in a 37° C. shaker with agitation at 600 rpm to allow tissue to dissociate into single cells. Larger tissue fragments were allowed to settle under normal gravity for 2 minutes and the supernatant was transferred to a clean Falcon tube. An additional 3 mL of wash media with 10% FBS was added and then centrifuged. Cells were filtered through a […] mesh filter as well as additional 40 μM filter to remove mouse fibroblast. […] When the Matrigel domes solidified, 500 μL of pre-warmed complete growth media was added and incubated in 5% CO2 atmosphere at 37° C. The growth and quantity of the organoid cultures were monitored with fresh growth media added every 2 days. Organoid propagation started from adding digestion media with gentle mechanical digestion. The suspension was incubated in a Falcon tube for 30 minutes, inverted every 10 minutes, and then centrifuged at 1300 rpm for 6 minutes at 4° C. The cell pellet was resuspended in wash media with 0.1% BSA, followed by Matrigel, and then plated as domes. […]

SOS2 mRNA = SOS2 mRNA expression by quantitative RT-PCR in SW620 cells; type: cell-based
Experimental: The RNA samples were quantified by optical density 260/280, 260/230 readings using a spectrophotometer (NanoDrop, Thermo Fisher Scientific, Waltham, MA, USA). […] Quantitative RT-PCR was performed using the MX3000p Real-Time PCR System (Agilent Technologies, Santa Clara, CA, USA) to determine the mRNA expression levels of SOS1, SOS2, and GAPDH. […] This was followed by Amplitaq activation at 50° C. for 2 minutes, 95° C. for 2 minutes, and then 40 cycles at 95° C. for 1 second for denaturing and at 60° C. for 20 seconds for annealing and extension. We calculated ΔCt, defined as the difference between the crossover threshold (Ct) of the target gene and the Ct average of GAPDH for each sample.

MCC19990-006 CRC PDO = assay: Organoid drug sensitivity assay (CellTiter-Glo 3D viability); type: cell-based; details: Homo sapiens, 72 h, read-out: IC50, viability of PDO
Experimental: as §1

MCC19990-010 CRC PDO = assay: as above; type: cell-based; details: Homo sapiens, 72 h, read-out: IC50, viability of PDO
Experimental: as §1

With `COc1cc2nc(C)nc(N[C@H](C)c3cc(N)cc(C(F)(F)F)c3)c2cc1O[C@H]1CCOC1` [BI3406, reference compound] the “Viability of PDO (sensitivity)” value (MCC19990-002 CRC PDO) was “resistant”, the “SOS2 mRNA expression level” value (SOS2 mRNA) was “upregulated” and the IC50 (MCC19990-006 CRC PDO) was 8.5 µM. It also gave an IC50 (MCC19990-010 CRC PDO) of 1.9 µM.
